ChEMBL document CHEMBL1125402, “Conformational effects on the activity of drugs. 13. A revision of previously proposed models for the activation of alpha- and beta-adrenergic receptors” (J Med Chem, 1992)

By UniProt entry, the sequences of proteins in these tests, tags left out. Where a name states a change or a piece, a line headed by the entry shows the natural chain unless it says otherwise.
UniProt P15823, whole entry, looked up: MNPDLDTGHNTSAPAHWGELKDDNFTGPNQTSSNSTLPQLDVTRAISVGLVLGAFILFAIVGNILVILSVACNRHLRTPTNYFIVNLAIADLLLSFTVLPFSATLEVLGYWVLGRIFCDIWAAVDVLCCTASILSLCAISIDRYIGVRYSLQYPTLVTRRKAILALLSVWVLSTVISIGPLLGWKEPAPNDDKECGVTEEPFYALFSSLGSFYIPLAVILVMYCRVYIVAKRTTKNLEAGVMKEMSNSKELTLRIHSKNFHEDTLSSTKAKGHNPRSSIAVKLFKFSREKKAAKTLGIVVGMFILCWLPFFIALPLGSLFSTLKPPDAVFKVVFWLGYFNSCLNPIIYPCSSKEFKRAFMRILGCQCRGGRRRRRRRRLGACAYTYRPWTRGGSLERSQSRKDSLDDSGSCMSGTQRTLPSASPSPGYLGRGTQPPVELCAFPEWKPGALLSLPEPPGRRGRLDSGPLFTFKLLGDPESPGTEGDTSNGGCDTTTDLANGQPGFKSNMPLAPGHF
UniProt P23944, whole entry, looked up: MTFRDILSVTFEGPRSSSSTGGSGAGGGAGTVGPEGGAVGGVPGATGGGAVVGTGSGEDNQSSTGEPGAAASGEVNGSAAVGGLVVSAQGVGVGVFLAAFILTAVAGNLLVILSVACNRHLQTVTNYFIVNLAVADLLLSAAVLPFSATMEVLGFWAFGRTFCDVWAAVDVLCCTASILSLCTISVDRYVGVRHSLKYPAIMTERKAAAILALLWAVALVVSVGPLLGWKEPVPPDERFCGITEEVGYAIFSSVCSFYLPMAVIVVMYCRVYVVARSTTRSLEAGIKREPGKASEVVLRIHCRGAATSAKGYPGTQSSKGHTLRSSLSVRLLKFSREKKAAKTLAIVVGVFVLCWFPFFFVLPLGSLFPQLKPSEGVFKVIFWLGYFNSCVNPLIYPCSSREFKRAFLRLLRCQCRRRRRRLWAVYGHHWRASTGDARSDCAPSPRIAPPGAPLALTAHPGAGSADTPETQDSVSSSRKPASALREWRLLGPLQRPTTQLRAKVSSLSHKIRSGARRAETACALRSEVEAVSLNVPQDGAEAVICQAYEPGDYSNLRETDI
UniProt P43140: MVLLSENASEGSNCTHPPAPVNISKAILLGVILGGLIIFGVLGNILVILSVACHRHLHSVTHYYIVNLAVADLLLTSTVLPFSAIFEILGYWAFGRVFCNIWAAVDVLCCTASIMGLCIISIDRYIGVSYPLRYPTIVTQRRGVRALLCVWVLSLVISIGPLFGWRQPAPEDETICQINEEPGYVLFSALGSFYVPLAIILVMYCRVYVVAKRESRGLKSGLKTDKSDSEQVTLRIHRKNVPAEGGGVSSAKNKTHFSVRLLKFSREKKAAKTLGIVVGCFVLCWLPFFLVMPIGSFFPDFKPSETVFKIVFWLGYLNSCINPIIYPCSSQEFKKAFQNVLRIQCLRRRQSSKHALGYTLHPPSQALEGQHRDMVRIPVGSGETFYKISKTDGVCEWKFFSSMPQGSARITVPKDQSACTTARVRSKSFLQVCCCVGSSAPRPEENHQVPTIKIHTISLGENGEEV

Target: Adrenergic receptor alpha-1 (Rattus norvegicus) (UniProt P15823+P23944+P43140)
Test: Compound was evaluated for alpha adrenoceptor agonistic activity towards Alpha-1 adrenergic receptor of isolated rat vas deferens (exp 1)
Assay type: functional, tissue-based

SMILES	pD2
Oc1ccc(C2CNCCO2)cc1O (configuration not stated)	4.75
Oc1ccc(C2(O)CCCNC2)cc1O (configuration not stated)	4.53
